# Target: rat μ opioid receptor (G protein activation) (Rattus norvegicus, UniProt P33535, V245I)
# Amino acid sequences for entries named in this document (tags omitted).
# UniProt P33535, whole entry V245I: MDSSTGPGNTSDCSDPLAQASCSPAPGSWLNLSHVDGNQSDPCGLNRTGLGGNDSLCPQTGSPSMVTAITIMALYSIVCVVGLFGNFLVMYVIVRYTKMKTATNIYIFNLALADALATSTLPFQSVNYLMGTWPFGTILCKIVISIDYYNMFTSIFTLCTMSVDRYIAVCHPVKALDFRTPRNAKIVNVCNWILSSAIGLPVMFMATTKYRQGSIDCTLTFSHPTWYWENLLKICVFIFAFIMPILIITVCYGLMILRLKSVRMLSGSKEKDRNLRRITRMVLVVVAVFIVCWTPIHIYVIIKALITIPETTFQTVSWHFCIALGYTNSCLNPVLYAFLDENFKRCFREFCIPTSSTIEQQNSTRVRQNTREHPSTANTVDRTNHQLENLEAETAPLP
structure (smiles),measurement,setting,value
"C[C@@H](NC(=O)[C@@H](N)Cc1ccc(O)cc1)C(=O)NCC(=O)N(C)[C@@H](Cc1ccccc1)C(=O)NCCO [DAMGO, [D-Ala^2, N-Me-Phe^4, Gly-ol^5]-enkephalin]",elevation of low Km GTPase activity,"1 μM of DAMGO, transfected cells",33%
same,GTPase activity in untransfected parental CHO cells,DAMGO treatment,not affected
